The source made the active and inactive calls. The calls are words filed in the database; no cut-off is given here.
Tests used:
[1] = species: Homo sapiens; assay: Selectivity ratio of Ki for CB1 receptor (unknown origin) to Ki for CB2 receptor (unknown origin)
[2] = target: T1, Cannabinoid receptor 1 (Homo sapiens, UniProt P21554); assay: Inverse agonist activity at CB1 receptor (unknown origin) expressed in HEK cells assessed as increase in cAMP production at 5 x 10^-6 to 5 x 10^-10 M measured at 50 mins by ACTOne dye-based fluorescence assay in presence of forskolin and Ro 20-1724 relative to control; type: functional, cell-based; conditions: HEK293
Procedure, shortened: (§1)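 HEK-CNG+CB1 or HEK-CNG+CB2 cells, plus parental HEK-CNG, were plated at 50,000 cells/well in DMEM with 10% FBS the day before. Membrane potential dye was loaded for 1 h in the dark at room temperature. Ligands were added at 5x10⁻⁶ to 5x10⁻¹⁰ final, with 25 µM Ro 20-1724 and 800 nM forskolin, in DPBS with 2.5% DMSO. Fluorescence (Ex 540, Em 590 nm) was read at 50 min. At least six biological replicates were run, with non-linear fitting.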

Chains of the proteins cited; added tags and fusions are not shown.
UniProt P21554, whole entry: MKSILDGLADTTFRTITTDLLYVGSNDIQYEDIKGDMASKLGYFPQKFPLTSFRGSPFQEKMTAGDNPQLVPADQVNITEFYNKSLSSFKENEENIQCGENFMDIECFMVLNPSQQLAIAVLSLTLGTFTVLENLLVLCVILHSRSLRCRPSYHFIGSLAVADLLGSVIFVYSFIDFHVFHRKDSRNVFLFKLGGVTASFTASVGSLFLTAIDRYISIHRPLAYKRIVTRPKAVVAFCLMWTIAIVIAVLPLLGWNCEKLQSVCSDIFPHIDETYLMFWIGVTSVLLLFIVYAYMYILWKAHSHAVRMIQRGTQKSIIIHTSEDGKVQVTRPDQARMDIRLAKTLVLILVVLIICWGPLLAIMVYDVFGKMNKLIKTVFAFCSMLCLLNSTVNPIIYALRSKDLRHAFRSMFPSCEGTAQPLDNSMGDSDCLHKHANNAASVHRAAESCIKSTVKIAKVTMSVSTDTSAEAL
UniProt P34972, whole entry: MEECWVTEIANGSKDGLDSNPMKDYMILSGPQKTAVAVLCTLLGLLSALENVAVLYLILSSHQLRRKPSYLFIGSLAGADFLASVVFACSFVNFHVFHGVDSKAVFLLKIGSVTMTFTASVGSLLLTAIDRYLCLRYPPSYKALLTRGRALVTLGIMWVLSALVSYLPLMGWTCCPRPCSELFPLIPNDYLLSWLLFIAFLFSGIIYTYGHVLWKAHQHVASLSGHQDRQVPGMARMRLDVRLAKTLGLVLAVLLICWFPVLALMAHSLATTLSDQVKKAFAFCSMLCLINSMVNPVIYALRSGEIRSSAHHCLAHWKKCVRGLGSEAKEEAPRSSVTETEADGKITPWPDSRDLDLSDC

[3] = target: Cannabinoid receptor 2 (Homo sapiens, UniProt P34972); assay: Inverse agonist activity at CB2 receptor (unknown origin) expressed in HEK cells assessed as increase in cAMP production at 5 x 10^-6 to 5 x 10^-10 M measured at 50 mins by ACTOne dye-based fluorescence assay in presence of forskolin and Ro 20-1724 relative to control; type: functional, cell-based; conditions: HEK293; procedure, shortened: as §1
[4] = target: T1, Cannabinoid receptor 1; assay: Displacement of [3H]-CP55940 from CB1 receptor (unknown origin) expressed in HEK-CNG cell membranes after 90 mins by liquid scintillation counting analysis

Row | SMILES | Ratio Ki [1] | Efficacy [2] | Efficacy [3] | Ki [4]
1 | CCc1ccc(C(=O)c2cc(O)c(-c3cc(Cl)cc(Cl)c3)c(O)c2)cc1 | 30.3 | inactive |  | 
2 | CCCCCCC(=O)c1cc(O)c(-c2cc(Cl)cc(Cl)c2)c(O)c1 | 1 | inactive | inactive | 
3 | O=C(c1cccc(C(F)(F)F)c1)c1cc(O)c(-c2cc(Cl)cc(Cl)c2)c(O)c1 | 0.41 | inactive | inactive | 
4 | CCCCc1ccc(C(=O)c2cc(O)c(-c3cc(Cl)cc(Cl)c3)c(OC)c2)cc1 | 1 | inactive |  | 
5 | COc1cc(C(=O)c2ccc(C)cc2)cc(O)c1-c1cc(Cl)cc(Cl)c1 | 1 | inactive |  | 
6 | COc1cc(C(=O)c2ccc(Cl)cc2)cc(OC)c1-c1cc(Cl)cc(Cl)c1 | 1 | inactive | inactive | 
7 | Cc1cccc(C(=O)c2cc(O)c(-c3cc(Cl)cc(Cl)c3)c(O)c2)c1 | 3.82 | inactive | inactive | 
8 | CC(C)(C)c1ccc(C(=O)c2cc(O)c(-c3cc(Cl)cc(Cl)c3)c(O)c2)cc1 | 0.8 | inactive |  | 
9 | CCCc1ccc(C(=O)c2cc(O)c(-c3cc(Cl)cc(Cl)c3)c(O)c2)cc1 | 167 | inactive |  | 
10 | Cc1ccc(Cn2nc(C(=O)N[C@@H]3C(C)(C)[C@@H]4CC[C@@]3(C)C4)cc2-c2ccc(Cl)c(C)c2)cc1 [SR-144528] |  |  |  | > 10 µM
11 | CC(C)c1ccc(C(=O)c2cc(O)c(-c3cc(Cl)cc(Cl)c3)c(O)c2)cc1 | 20.7 | inactive |  | 

Reference: ChEMBL document CHEMBL3603733, “Synthesis and biological evaluation of (3',5'-dichloro-2,6-dihydroxy-biphenyl-4-yl)-aryl/alkyl-methanone selective CB2 inverse agonist” (Bioorg Med Chem, 2015)
